The list shows a part of the results, in another mix than the full data. Results filed as inconclusive are left out. Active and inactive are the calls of the source. The call rests on the fitted dose curve; in most records, active means well fitted inhibition curve with a large enough effect; inconclusive means small, poorly fitted or top-dose-only effect; inactive means flat fitted curve, though single readings scatter.
Target: Dual specificity protein kinase CLK4 (Homo sapiens) (UniProt Q9HAZ1)
Assay: Confirmation Assay for Inhibitors of Clk4 (Kinase-Glo Assay): KU probe
Settings: recombinant Clk4, Kinase-Glo ATP luminescence
Method: NIH Molecular Libraries Probe Production Centers Network [MLPCN] NIH Chemical Genomics Center [NCGC] MLPCN Grant: 1R03MH084827-01 Assay Submitter (PI): Tom Misteli NCGC Assay Overview: Clk4 (Invitrogen, cat# PV3839) was assayed using ATP and the RS repeat peptide (AnaSpec cat # 61722) as substrates. Following the Clk4 reaction, the remaining ATP levels were detected using Promega Kinase-Glo technology wherein the remaining ATP from the kinase reaction is detected using Ultra-Glo luciferase and D-luciferin which generates a bioluminescence signal from the ATP. The positive control for the assay was TG003 (Sigma-Aldrich, cat# 300801-52-9) which has been described as an inhibitor of Clk 4[1].
NCGC Assay Protocol Summary: Two uL/well of substrate-buffer solution (100 uM RS peptide, 1 uM ATP, 25 mM Tris pH7.5, 10 mM MgCl2, 0.5 mM EGTA, 2.5 mM DTT, 0.01% Triton X-100 final concentration) was dispensed into 1536-well, assay plates (Greiner, solid white medium-binding plates) with Aurora Discovery BioRAPTR Flying Reagent Dispenser (FRD; Beckton-Dickenson). Using a Kalypsys pin tool equipped with a 1536-pin tool, 23 nL of compound solution was transferred to the assay plate. […] Luminescence was detected with the ViewLux plate reader (Perkin Elmer, Waltham, MA) after 5 min incubation using a 5 second exposure time and 2x binning.

The chains behind the UniProt entries cited, without tags or fusion partners. Where a name states a change or a piece, a line headed by the entry shows the natural chain unless it says otherwise.
UniProt Q9HAZ1: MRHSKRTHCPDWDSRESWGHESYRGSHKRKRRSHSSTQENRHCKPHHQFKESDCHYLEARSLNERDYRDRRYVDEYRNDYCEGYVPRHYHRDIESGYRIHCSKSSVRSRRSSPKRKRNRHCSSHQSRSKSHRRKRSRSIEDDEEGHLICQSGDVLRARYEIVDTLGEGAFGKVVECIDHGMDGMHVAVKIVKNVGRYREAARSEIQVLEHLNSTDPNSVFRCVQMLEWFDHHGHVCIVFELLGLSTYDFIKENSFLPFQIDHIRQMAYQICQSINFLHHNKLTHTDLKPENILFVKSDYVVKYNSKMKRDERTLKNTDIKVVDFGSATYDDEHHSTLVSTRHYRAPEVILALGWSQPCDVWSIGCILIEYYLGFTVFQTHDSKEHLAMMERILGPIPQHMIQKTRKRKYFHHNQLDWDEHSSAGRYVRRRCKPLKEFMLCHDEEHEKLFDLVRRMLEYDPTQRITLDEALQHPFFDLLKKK

Row | SMILES | Potency
1 | c1cncc(CNc2ncncc2-c2ccc3c(c2)OCO3)c1 | active: 9.23 µM
2 | c1nc(NCC2CCCC2)c2cc(-c3ccc4c(c3)OCO4)ccc2n1 | active: 0.0519 µM

— PubChem BioAssay AID624094 (National Center for Advancing Translational Sciences (NCATS), 2012)
